The record followed here is US5994629A, “Positive selection” (priority 1991, dated 1999).

Test [1] concerns tobacco leaf discs. Briefly: Effect of opines on shoot formation in substrates without nitrogen. The format is cell-based. The following applies: for number of shoots per 9 leaf discs: substrate without nitrogen, 1 mg/l BA; for function as nitrogen source, in words: substrate without other nitrogen.
For test [2], the system named is native GUS activity in non-transformed tobacco leaf discs. Kind of test: Test of inhibitors in X-gluc assay at pH 5.0. Format: cell-based. The following applies: for X-gluc reaction with inhibitor: pH 5.0, 20 hours; for inhibition of native GUS activity, in words: pH 5.0, X-gluc assay.
Test [3] concerns tobacco leaf discs co-cultivated with Agrobacterium. Briefly: Positive selection combined with negative selection. The format is cell-based. To be noted: kanamycin 300 mg/l; BA 1 mg/l or BA3GN sodium salt 15 mg/l. The source says:
In addition, the experiment included selection using BA3GN sodium salt together with saccharo 1,4-lactone (SL) (a strong specific inhibitor of the introduced β-glucuronidase).
The methods used were essentially as described below in Example 13, but Gamborg B5 substrate was used instead of MSO substrate.
The experiment with BA together with kanamycin, which is the traditional negative selection system, was repeated as two independent experiments with 54 leaf discs per experiment. A single GUS-positive shoot was detected among a total of 23 selected shoots. The results for BA3GN sodium salt were obtained using 324 leaf discs. The experiment with SL (saccharo 1,4-lactone) was performed once with a total of 162 leaf discs.

Test [4] concerns tobacco leaf discs. Briefly: Inhibition by SL of shoot formation induced by BA and BA3GN sodium salt. The format is cell-based. The following applies: BA 0.5 mg/l, BA3GN sodium salt 15 mg/l.
Test [5] concerns wild type (GUS-) tobacco leaf discs. Briefly: Selective inhibition of BA3GN induced shoot formation. The format is cell-based, tobacco variety 'Burley'. To be noted: for Shoots per leaf disc, BA substrate: BA 1 mg/l; for Shoots per leaf disc, BA3GN substrate: BA3GN 15 mg/l.
Test [6] has as its system tobacco leaf discs.

The structures appear in SMILES notation.

As for `NC(=O)CC[C@H](NC[C@@H](O)[C@@H](O)[C@H](O)[C@H](O)CO)C(=O)O` [Mannopine], the “number of shoots per 9 leaf discs” value in the test with tobacco leaf discs [1] (10 mM), in the test with tobacco leaf discs [1] (20 mM), with tobacco leaf discs [1] (40 mM) and in the test on tobacco leaf discs [1] (80 mM) was over 50 each time. Further, in the test on tobacco leaf discs [1], the “function as nitrogen source, in words” value is “can function as a good nitrogen source”.

Take `Cc1cc(=O)oc2cc(O[C@@H]3O[C@H](C(=O)O)[C@@H](O)[C@H](O)[C@H]3O)ccc12` [Methylumbellipheryl glucuronide]: the “X-gluc reaction with inhibitor” value in test [2] (0.1 mM) was “+”; in test [2] (1 mM), “+”; in test [2] (10 mM), “+”; in test [2] (50 mM) it was 0. Also, the “inhibition of native GUS activity, in words” value (from here on “inhibition”) in test [2] is “weak inhibitor”.

As to `c1ccc(CNc2ncnc3nc[nH]c23)cc1` [BA, N^6 -benzyladenine], in test [3], the “GUS+ shoots among total shoots, %” value stood at 4.3%; the “GUS+ shoots among total shoots, compared to BA + Kanamycin” value is 1 x; the “GUS+ shoots per leaf disc, No.” value turned out to be 0.01; the “GUS+ shoots per leaf disc, compared to BA + Kanamycin” value is 1 x. Further, in the test with tobacco leaf discs [4] (SL 0 mM), the “Number of regenerated shoots per leaf disc” value is given as 4.3 and the “relative number of regenerated shoots per leaf disc” value is given as 100%. Further, in the test on tobacco leaf discs [4] (SL 16 mM), the “Number of regenerated shoots per leaf disc” value was found to be 3.6 and the “relative number of regenerated shoots per leaf disc” value was 84%. Besides, in test [5] (BA 1 mg/l or BA3GN 15 mg/l alone (additive 0 mg/l)), the “Shoots per leaf disc” value is 1.00.

On to `O=C(O)[C@@H](O)[C@H]1OC(=O)[C@H](O)[C@H]1O` [Saccharo 1,4-lactone], for which the “X-gluc reaction with inhibitor” value is listed as “+” in test [2] (0.1 mM), 0 in test [2] (1 mM), 0 in test [2] (10 mM) and 0 in test [2] (50 mM). The “inhibition” value in test [2] is given as “strong inhibitor”.

`OC[C@H]1OC(O)[C@H](O)[C@@H](O)[C@H]1O` (some centres unmarked) [Galactose]: the “X-gluc reaction with inhibitor” value in test [2] (0.1 mM), in test [2] (1 mM), in test [2] (10 mM) and in test [2] (50 mM) was “+” throughout.

Take `CC(NC(CCCNC(=N)N)C(=O)O)C(=O)O` (centres unmarked) [Octopine]: the “number of shoots per 9 leaf discs” value in the test on tobacco leaf discs [1] (10 mM) amounted to 11; in the test with tobacco leaf discs [1] (20 mM), 15; in the test with tobacco leaf discs [1] (40 mM), 15; in the test on tobacco leaf discs [1] (80 mM), 7. Further, the “function as nitrogen source, in words” value with tobacco leaf discs [1] is listed as “cannot support shoot formation”.

In the case of `O=C(O)Cc1c[nH]c2ccccc12` [IAA, indole acetic acid], in the test with tobacco leaf discs [6] (metabolism of the compound inhibited), the “factor by which the effect on callus growth is increased” value is 5-100.

In the case of `C/C(=C\CNc1ncnc2[nH]cnc12)CO` [Zeatin], the “factor by which the optimal shoot inducing concentration is lowered” value in the test on tobacco leaf discs [6] (glycosylation of zeatin inhibited) is 5-100.

`O=C(O)[C@H]1OC(O)[C@H](O)[C@@H](O)[C@@H]1O` (some centres unmarked) [Glucuronic acid]: the “X-gluc reaction with inhibitor” value is on record as “+” in test [2] (0.1 mM), “+” in test [2] (1 mM), 0 in test [2] (10 mM) and 0 in test [2] (50 mM). For the same molecule, in test [2], the “inhibition” value is recorded as “medium strength inhibitor”. Also, the “Ratio BA/BA3GN” value in test [5] (additive 1000 mg/l) is recorded as 4.1. Moreover, the “Shoots per leaf disc, BA substrate” value is given as 0.33 in test [5] (additive 1000 mg/l), 0.83 in test [5] (additive 3300 mg/l) and 0.42 in test [5] (additive 10,000 mg/l). Also, the entries for the “Shoots per leaf disc, BA3GN substrate” value in test [5] (additive 1000 mg/l), in test [5] (additive 3300 mg/l) and in test [5] (additive 10,000 mg/l) were 0.08, 0 and 0, respectively.

As for `O=C(O)CN(CCN(CC(=O)O)CC(=O)O)CC(=O)O` [EDTA], the “X-gluc reaction with inhibitor” value in test [2] (0.1 mM), in test [2] (1 mM), in test [2] (10 mM) and in test [2] (50 mM) was “+” each time. Further, in test [2], the “inhibition” value is listed as “no effect”.

Turning to `O=C1O[C@H](CO)[C@@H](O)[C@H](O)[C@H]1O` [Gluconolactone], the “X-gluc reaction with inhibitor” value in test [2] (0.1 mM), in test [2] (1 mM), in test [2] (10 mM) and in test [2] (50 mM) was “+” in each case. Moreover, the “inhibition” value in test [2] was “no inhibiting effect”.

`N=C(N)NCCCC(NC(CCC(=O)O)C(=O)O)C(=O)O` (centres unmarked) [Nopaline]: the “number of shoots per 9 leaf discs” value was found to be 18 in the test on tobacco leaf discs [1] (10 mM), 19 in the test with tobacco leaf discs [1] (20 mM), 11 in the test on tobacco leaf discs [1] (40 mM) and 8 in the test on tobacco leaf discs [1] (80 mM). In addition, the “function as nitrogen source, in words” value in the test on tobacco leaf discs [1] was “cannot support shoot formation”.

As for `O=C(O)[C@H]1O[C@H](OP(=O)(O)OP(=O)(O)OC[C@H]2O[C@@H](n3ccc(=O)[nH]c3=O)[C@H](O)[C@@H]2O)[C@H](O)[C@@H](O)[C@@H]1O` [UDP-glucuronide], the “X-gluc reaction with inhibitor” value in test [2] (0.1 mM), in test [2] (1 mM), in test [2] (10 mM) and in test [2] (50 mM) was “+” throughout.

Take `CO[C@@H]1O[C@H](C(=O)O)[C@@H](O)[C@H](O)[C@H]1O` [Methyl-β-glucuronide, Methyl-β-D-glucuronide]: in test [5] (additive 1000 mg/l), the “Ratio BA/BA3GN” value is on record as 1.9; the “Shoots per leaf disc, BA substrate” value worked out at 1.91; the “Shoots per leaf disc, BA3GN substrate” value was found to be 1.00. In test [5] (additive 3300 mg/l), the “Shoots per leaf disc, BA substrate” value is 2.25 and the “Shoots per leaf disc, BA3GN substrate” value is on record as 0.
